Source: patent publication US20230312472A1

Assay: pH of the solid, 0.5 g dissolved in 50 mL ELGA water
Conditions: for pH of remifentanil hydrochloride: 0.5 g in 50 mL ELGA water; for pH: 0.5 g solid dissolved in 50 mL ELGA water, pH meter

## CCC(=O)N(c1ccccc1)C1(C(=O)OC)CCN(CCC(=O)OC)CC1 [Example 6 Sample B4]
hydrochloride
  pH of remifentanil hydrochloride: 5.62

## CCC(=O)N(c1ccccc1)C1(C(=O)OC)CCN(CCC(=O)OC)CC1
Listed as Sample C5, hydrochloride
  pH of remifentanil hydrochloride: 5.98

## CCC(=O)N(c1ccccc1)C1(C(=O)OC)CCN(CCC(=O)OC)CC1 [Example 6 Sample A4]
hydrochloride
  pH of remifentanil hydrochloride: 4.21

## CCC(=O)N(c1ccccc1)C1(C(=O)OC)CCN(CCC(=O)OC)CC1 [Example 6 Sample A2]
hydrochloride
  pH of remifentanil hydrochloride: 4.22
Listed as A2, hydrochloride
  pH of remifentanil hydrochloride: 4.22
Listed as Sample A2, hydrochloride
  pH of remifentanil hydrochloride: 4.22

## CCC(=O)N(c1ccccc1)C1(C(=O)OC)CCN(CCC(=O)OC)CC1 [Example 6 Sample B2]
hydrochloride
  pH of remifentanil hydrochloride: 5.55
  pH: 5.55
Listed as Sample B2, hydrochloride
  pH of remifentanil hydrochloride: 5.55

## CCC(=O)N(c1ccccc1)C1(C(=O)OC)CCN(CCC(=O)OC)CC1 [Example 6 Sample B3]
hydrochloride
  pH of remifentanil hydrochloride: 5.51
  pH: 5.51
Listed as Sample B3, hydrochloride
  pH of remifentanil hydrochloride: 5.51

## CCC(=O)N(c1ccccc1)C1(C(=O)OC)CCN(CCC(=O)OC)CC1 [Example 6 Sample A3]
hydrochloride
  pH of remifentanil hydrochloride: 4.31
Listed as A3, hydrochloride
  pH of remifentanil hydrochloride: 4.31
Listed as Sample A3, hydrochloride
  pH of remifentanil hydrochloride: 4.31

Only a part of the results on these compounds is given; other tests are left out.
